Some compounds may have been tested in ways that are not shown here.
How the values were obtained:
[1] = target: Phospholipase D2 (Homo sapiens, UniProt O14939); assay: Inhibition of PLD2 (unknown origin) expressed in human HEK cells by immunoprecipitation
[2] = tested on: Calu-1; assay: Antiproliferative activity against human Calu-1 cells assessed as reduction on cell viability by cellular assay
[3] = target: Phospholipase D1 (Homo sapiens, UniProt Q13393); assay: Inhibition of PLD1 (unknown origin) expressed in human HEK cells by immunoprecipitation assay
[4] = Efflux ratio of apparent permeability from basolateral to apical side over apical to basolateral side in dog MDCK-MDR1 cells

By UniProt entry, the sequences of proteins in these tests, tags left out.
UniProt O14939, whole entry: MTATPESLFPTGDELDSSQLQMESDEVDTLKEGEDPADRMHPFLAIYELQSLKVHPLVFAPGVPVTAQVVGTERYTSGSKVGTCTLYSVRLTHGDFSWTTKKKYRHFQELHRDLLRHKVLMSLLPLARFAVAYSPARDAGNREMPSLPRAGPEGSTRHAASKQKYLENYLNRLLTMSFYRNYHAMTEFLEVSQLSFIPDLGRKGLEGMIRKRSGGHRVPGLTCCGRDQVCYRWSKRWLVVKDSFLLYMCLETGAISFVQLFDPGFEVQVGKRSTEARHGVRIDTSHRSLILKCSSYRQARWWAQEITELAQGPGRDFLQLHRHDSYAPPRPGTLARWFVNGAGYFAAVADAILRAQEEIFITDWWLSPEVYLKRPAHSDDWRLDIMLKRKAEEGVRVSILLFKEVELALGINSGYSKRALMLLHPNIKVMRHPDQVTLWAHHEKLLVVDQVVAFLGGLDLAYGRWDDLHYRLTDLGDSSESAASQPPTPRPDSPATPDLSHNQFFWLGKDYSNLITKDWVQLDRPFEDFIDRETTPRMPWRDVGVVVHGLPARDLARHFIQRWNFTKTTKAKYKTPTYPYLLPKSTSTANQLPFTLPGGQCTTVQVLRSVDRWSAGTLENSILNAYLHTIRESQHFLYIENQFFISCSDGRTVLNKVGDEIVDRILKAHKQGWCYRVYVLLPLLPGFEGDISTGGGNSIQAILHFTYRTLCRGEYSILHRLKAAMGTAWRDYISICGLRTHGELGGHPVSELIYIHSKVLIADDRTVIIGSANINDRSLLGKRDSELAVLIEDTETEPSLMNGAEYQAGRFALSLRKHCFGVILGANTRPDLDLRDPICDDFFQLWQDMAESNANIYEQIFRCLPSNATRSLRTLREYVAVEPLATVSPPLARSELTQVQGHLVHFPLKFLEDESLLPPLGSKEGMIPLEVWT
UniProt Q13393, whole entry: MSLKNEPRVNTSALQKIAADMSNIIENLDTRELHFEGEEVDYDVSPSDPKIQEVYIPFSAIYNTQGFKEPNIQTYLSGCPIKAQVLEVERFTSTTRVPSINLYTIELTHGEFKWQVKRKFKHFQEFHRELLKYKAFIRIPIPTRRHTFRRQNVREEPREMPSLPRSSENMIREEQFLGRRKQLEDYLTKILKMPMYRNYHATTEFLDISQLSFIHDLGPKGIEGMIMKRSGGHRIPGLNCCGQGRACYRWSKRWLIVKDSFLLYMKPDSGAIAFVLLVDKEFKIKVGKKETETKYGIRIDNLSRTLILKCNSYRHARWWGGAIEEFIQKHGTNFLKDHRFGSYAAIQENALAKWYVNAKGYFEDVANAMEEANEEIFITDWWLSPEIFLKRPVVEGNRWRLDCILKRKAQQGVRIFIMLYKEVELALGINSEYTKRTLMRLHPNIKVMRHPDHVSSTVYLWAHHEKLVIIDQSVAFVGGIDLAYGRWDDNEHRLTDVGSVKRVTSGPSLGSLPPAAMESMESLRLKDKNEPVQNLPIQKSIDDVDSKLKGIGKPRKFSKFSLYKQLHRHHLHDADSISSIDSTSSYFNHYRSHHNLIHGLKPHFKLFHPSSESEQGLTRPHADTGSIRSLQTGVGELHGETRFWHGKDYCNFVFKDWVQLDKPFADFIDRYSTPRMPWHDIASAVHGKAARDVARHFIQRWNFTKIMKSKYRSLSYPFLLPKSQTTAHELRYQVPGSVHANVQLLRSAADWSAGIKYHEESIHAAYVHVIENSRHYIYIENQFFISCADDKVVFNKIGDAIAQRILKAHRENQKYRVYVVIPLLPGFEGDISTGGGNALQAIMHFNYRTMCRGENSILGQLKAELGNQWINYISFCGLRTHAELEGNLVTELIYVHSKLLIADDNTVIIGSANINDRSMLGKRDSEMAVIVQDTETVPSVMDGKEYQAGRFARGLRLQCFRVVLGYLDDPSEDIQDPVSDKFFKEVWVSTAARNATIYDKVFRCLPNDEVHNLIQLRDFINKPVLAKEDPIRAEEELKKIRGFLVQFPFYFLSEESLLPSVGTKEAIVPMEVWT

For `C[C@@H](CN1CCC(n2c(=O)[nH]c3ccccc32)CC1)n1ccccc1=O`, the IC50 [1] was over 10000 nM, the IC50 [2] was 58 nM and the IC50 [3] was 43 nM. The Ratio [4] was 1.6.
With `O=c1ccccn1CCN1CCC(n2c(=O)[nH]c3ccccc32)CC1` the IC50 [1] was over 10000 nM, the IC50 [2] was 980 nM and the IC50 [3] was 120 nM. The Ratio [4] was 17.

— ChEMBL document CHEMBL5046323, “Discovery of Phospholipase D Inhibitors with Improved Drug-like Properties and Central Nervous System Penetrance” (ACS Med Chem Lett, 2022)
